The list shows a part of the results, in another mix than the full data. Active and inactive are the calls of the source. No stated cut-off is given here; in the data, active means activation above about 37%; inactive means the rest.
Biological target: Bifunctional epoxide hydrolase 2 (Homo sapiens) (UniProt P34913)
Assay: sEH enzyme activity enhancers – biochemical, human sEH, primary screen (AID 717)
Conditions: purified human sEH enzymatic activity, activator screen; at 2 µM; active compounds read high

Chains of the proteins cited; added tags and fusions are not shown.
UniProt P34913, whole entry, looked up: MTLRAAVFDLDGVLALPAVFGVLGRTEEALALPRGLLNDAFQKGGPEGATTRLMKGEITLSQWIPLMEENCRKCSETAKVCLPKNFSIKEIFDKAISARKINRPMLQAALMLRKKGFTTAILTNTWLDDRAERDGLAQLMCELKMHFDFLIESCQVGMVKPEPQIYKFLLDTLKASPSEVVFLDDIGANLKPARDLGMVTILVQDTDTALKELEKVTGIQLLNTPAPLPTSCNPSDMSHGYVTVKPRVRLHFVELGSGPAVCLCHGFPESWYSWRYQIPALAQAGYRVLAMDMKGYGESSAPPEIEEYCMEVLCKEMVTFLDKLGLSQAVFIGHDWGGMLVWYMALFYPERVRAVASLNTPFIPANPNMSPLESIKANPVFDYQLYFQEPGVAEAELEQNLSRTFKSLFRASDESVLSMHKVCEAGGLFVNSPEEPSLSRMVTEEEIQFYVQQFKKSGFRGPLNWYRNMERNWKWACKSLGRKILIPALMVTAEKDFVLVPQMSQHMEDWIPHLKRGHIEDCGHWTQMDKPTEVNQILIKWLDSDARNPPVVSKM

SMILES | activation
CC1(CBr)Cn2c(nc3ccccc3c2=O)S1 (stereo not drawn) | inactive: 12.3%
Clc1n[nH]nc1-c1nn[nH][15n]1 | inactive: -5.5%
O=P1(Nc2ccccn2)COc2ccccc2OC1 | inactive: -3.9%
Cc1ccc(OCC(=O)OC2CN3CCC2CC3)cc1 (stereo not drawn) | inactive: -20.3%
O=P1(Nc2ncccn2)COc2ccccc2OC1 | inactive: -4%
Cc1nn(-c2ccccc2)c2c1P(=O)(N1CCOCC1)N(C)C(c1ccccc1)=N2 (stereo not drawn) | inactive: 10%
CCOP1(=S)c2c(C)nn(CCC#N)c2N=C(c2ccc(F)cc2)N1C (stereo not drawn) | inactive: 3.5%
O=[N+]([O-])c1ccc2c(c1)nnn2O | inactive: -1%
CCOP1(=S)c2c(C)nn(CCC#N)c2N=C(c2ccccc2F)N1C (stereo not drawn) | inactive: -2.9%
Cc1cccc(OCC(=O)OC2CN3CCC2CC3)c1 (stereo not drawn) | inactive: 5.1%
CCN(CC)C(=S)SC(NC=O)C(Cl)(Cl)Cl (stereo not drawn) | inactive: -10.5%
ClCCSc1nnc(-c2cccnc2)o1 | inactive: -14.4%
CCC(C)N(CC(C)C)C(=S)SC(NC(C)=O)C(Cl)(Cl)Cl (stereo not drawn) | inactive: 0.8%
COP1(=S)c2c(C)nn(CCC#N)c2N=C(c2ccc(F)cc2)N1C (stereo not drawn) | inactive: -6.3%
CC1CCN(C(=O)Oc2c(Cl)cc(Cl)c3cccnc23)CC1 | inactive: -6.6%
CCc1nc2c(n1)c1c(non1O)c1c2no[n+]1[O-] | inactive: -11.5%
O=[N+]([O-])c1cccc2n[nH]nc12 | inactive: 1.4%
CC(=O)N1C2C3N(C(C)=O)C1C1N(C(C)=O)C(C(N1C(C)=O)N3C(C)=O)N2C(C)=O | inactive: 18.9%
CCOP(=O)(Nc1ccccc1)OCC | inactive: -6.9%
Cc1c2non([O-])c-2c(C)[n+](=O)[n+]1[O-] | inactive: -2.9%
Oc1ccccc1CNc1ccccn1 | inactive: -17.3%
CC(C)CC(=O)NC(Sc1ccc(Cl)cc1)C(Cl)(Cl)Cl (stereo not drawn) | inactive: 4.4%
CN1CCCC(OC(=O)C(c2ccccc2)c2ccccc2)C1 (stereo not drawn) | inactive: -8.7%
CCC(=O)N1C2C3N(C(=O)CC)C1C1N(C(=O)CC)C(C(N1C(=O)CC)N3C(=O)CC)N2C(=O)CC | inactive: 5.3%
COC(=O)c1cc2c(s1)N=C(c1ccccc1)N(C)P2(=O)N1CCOCC1 (stereo not drawn) | inactive: -3.5%
CCOC(=O)NC(Sc1ccccc1)C(Cl)(Cl)Cl (stereo not drawn) | inactive: 0.6%
c1nnnn1CCn1cnnn1 | inactive: -4%
O=P(Nc1nccs1)(c1ccccc1)c1ccccc1 | inactive: -7.6%
